Source: US20190117770A1, “USES OF IMMUNOCONJUGATES TARGETING CD138” (Biotest AG, priority 2011, published 2019)

Columns and labels:
[1] = Clinical trials of other immunoconjugates (literature); assay type: in vivo, human; conditions: assuming 70 kg and 1.9 m^2 body surface area
[2] = literature; cited from earlier work

**Q.** With T-DM1 as the substance, how does the “Corresponds to total concentration of” value [1] read?
**A.** 168 mg

**Q.** And the “MTD, once weekly regimen” value [2]?
**A.** MTD at 2.4 mg/kg
